{
  "sequences": {"note": "Chains of the proteins cited; added tags and fusions are not shown.", "UniProt P97266, whole entry, looked up": "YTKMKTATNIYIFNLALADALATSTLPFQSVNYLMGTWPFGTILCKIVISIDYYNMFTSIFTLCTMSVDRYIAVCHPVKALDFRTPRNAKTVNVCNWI", "UniProt P33533, whole entry, looked up": "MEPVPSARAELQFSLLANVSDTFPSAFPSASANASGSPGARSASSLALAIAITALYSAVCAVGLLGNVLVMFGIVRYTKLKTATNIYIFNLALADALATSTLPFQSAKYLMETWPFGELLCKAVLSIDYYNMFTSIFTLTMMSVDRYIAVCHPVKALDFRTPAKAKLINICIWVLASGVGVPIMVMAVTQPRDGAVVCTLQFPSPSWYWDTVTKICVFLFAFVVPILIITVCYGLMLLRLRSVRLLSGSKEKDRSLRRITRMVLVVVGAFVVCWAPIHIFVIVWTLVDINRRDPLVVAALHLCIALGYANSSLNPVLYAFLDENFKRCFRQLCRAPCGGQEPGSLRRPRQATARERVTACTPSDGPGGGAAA"},
  "source": "ChEMBL document CHEMBL3632621",
  "about": "“Conformationally restricted κ-opioid receptor agonists: Synthesis and pharmacological evaluation of diastereoisomeric and enantiomeric decahydroquinoxalines” (Bioorg Med Chem Lett, 2015)",
  "key": {"[1]": {"target": "Mu-type opioid receptor (Cavia porcellus) (UniProt P97266)", "experiment": "Displacement of [3H]-DAMGO from mu opioid receptor in guinea pig brain membrane at 1000 nM after 120 mins by scintillation counting"}, "[2]": {"target": "Delta-type opioid receptor (Rattus norvegicus) (UniProt P33533)", "experiment": "Displacement of [3H]-DPDPE from delta opioid receptor in rat brain membrane at 1000 nM after 120 mins by scintillation counting"}, "[3]": {"target": "Mu-type opioid receptor (Cavia porcellus) (UniProt P97266)", "experiment": "Displacement of [3H]-DAMGO from mu opioid receptor in guinea pig brain membrane at 10 uM after 120 mins by scintillation counting"}, "[4]": {"target": "Delta-type opioid receptor (Rattus norvegicus) (UniProt P33533)", "experiment": "Displacement of [3H]-DPDPE from delta opioid receptor in rat brain membrane at 10 uM after 120 mins by scintillation counting"}},
  "data": [
    {"smiles": "COC(=O)N1CCN(C(=O)Cc2ccc(Cl)c(Cl)c2)[C@@H]2[C@H]1CCC[C@@H]2N1CCCC1", "values": [
      {"measurement": "inhibition", "setting": "[1]", "value": 29, "unit": "%"},
      {"measurement": "inhibition", "setting": "[2]", "value": 24, "unit": "%"}
    ]},
    {"smiles": "COC(=O)N1CCN(C(=O)Cc2ccc(Cl)c(Cl)c2)[C@H]2[C@H]1CCC[C@@H]2N1CCCC1", "values": [
      {"measurement": "inhibition", "setting": "[1]", "value": 1, "unit": "%"},
      {"measurement": "inhibition", "setting": "[3]", "value": 6, "unit": "%"},
      {"measurement": "inhibition", "setting": "[4]", "value": 28, "unit": "%"}
    ]}
  ]
}
